Species: Homo sapiens
Experiment: Selectivity ratio of IC50 for human BACE2 to IC50 for human BACE1

In order of rising Ratio IC50:
1. C[C@]1(c2cc(NC(=O)c3nn(C(F)F)cc3Cl)ccc2F)N=C(N)OCC1(F)F  0.6
2. COc1cnc(C(=O)Nc2ccc(F)c([C@@]3(C)N=C(N)OCC3(F)F)c2)cn1  4
3. CC#CCOc1cnc(C(=O)Nc2ccc(F)c([C@@]3(C)N=C(N)OCC3(F)F)c2)cn1  17

Source: ChEMBL document CHEMBL2346595, “β-Secretase (BACE1) inhibitors with high in vivo efficacy suitable for clinical evaluation in Alzheimer's disease” (J Med Chem, 2013)
